Test results reported in PMC4354947 (Journal of medicinal chemistry, 2012).

Assays:
human eNPP1 = assay: Resistance to degradation by human eNPP1; assay type: in vitro ADME; details: after 20 min, 37 °C, pH 8.5
[1] = Hydrolysis in human blood serum; assay type: in vitro ADME; details: for t1/2 (h) human blood serum: 37 °C
alkaline phosphatase = details: 37 °C, 8 h time course

| Substance | % hydrolysis of human eNPP1 (human eNPP1) | t1/2 (h) human blood serum [1] | hydrolysis by alkaline phosphatase, in words (alkaline phosphatase) | fold enhancement of half-life in human serum compared with ADP ([1]; human) |
| --- | --- | --- | --- | --- |
| P^1-Borano P^1,P^3-5′-Di-2-methylthioadenosine 5′-Triphosphate, B Isomer [analogue 4B] | 5% | 14 h |  |  |
| P1-Borano P1,P3-5′-Di-2-methylthioadenosine 5′-Triphosphate [analogue 4] |  |  | completely resistant to hydrolysis | 7 fold |
| P^1-Borano P^1,P^3-5′-Di-2-methylthioadenosine 5′-Triphosphate, A Isomer [analogue 4A] | 0% | 14 h |  |  |
